{"source": "patent US3965109A", "about": "“Certain aryl amino pyridines” (priority 1971, dated 1976)", "format_in_all_cases": "in vivo", "key": {"[1]": {"system": "Pieris brassicae (cabbage white caterpillars)", "test": "Pest toxicity test", "set-up": "key to the marks not given beside the values", "settings": "0.1% by weight, 2 days"}, "[2]": {"system": "Plutella maculipennis (diamond back moth larvae)", "test": "Pest toxicity test", "set-up": "key to the marks not given beside the values", "settings": "0.1% by weight; mustard/paper; 2 days"}, "[3]": {"system": "larvae of the blowfly (Lucilia serrata)", "test": "Insecticidal test on blowfly larvae on treated filter paper", "settings": "scale of 1 to 6; filter paper with horse serum"}}, "data": [{"smiles": "O=[N+]([O-])c1cc([N+](=O)[O-])c(Nc2c(Cl)c(F)nc(F)c2Cl)c([N+](=O)[O-])c1", "values": [{"measurement": "antifeeding effect", "setting": "[1]", "result": "A"}, {"measurement": "antifeeding effect", "setting": "[2]", "result": "A"}, {"measurement": "Activity relative to lindane", "setting": "[3]", "result": 5}]}, {"smiles": "O=[N+]([O-])c1cc([N+](=O)[O-])c(Nc2c(F)c(F)nc(F)c2F)c([N+](=O)[O-])c1", "values": [{"measurement": "Activity relative to lindane", "setting": "[3]", "result": 5}]}]}
